Where two headings read alike, the source gives them in different places.

Data set [1] is described as follows: Eculizumab levels in maternal blood, cord blood and breast milk (Alexion Pharmaceuticals). It is filed as in vivo, human. The method, then: (§1) Fetal status was reassuring as indicated by continuous fetal heart monitoring, daily biophysical profile and umbilical artery dopplers; a 24 h urine collection was completed and measured 383 mg protein. […] That day blood pressures rose necessitating addition of Nifedipine. Of note, a trough level of Eculizumab was sub-therapeutic to block complement-dependent hemolysis (Alexion Pharmaceuticals). By 24 h after the second infusion, blood pressures improved and Labetalol was discontinued.
The neonate was intubated at 10 min of life for respiratory support and admitted to the NICU. They were extubated the following morning after one dose of surfactant; blood cultures were negative; and head ultrasound was normal. NICU course was notable for a patent ductus arteriosus (responsive to Indomethacin) and inguinal hernia repair (day 67), after which they were discharged home in good condition. There were trace levels of Eculizumab in cord blood samples taken at delivery, thought secondary to contamination with maternal blood.

Data set [2] deals with severe preeclampsia/HELLP syndrome. It is filed as in vivo, human. As to the method:
A nulliparous person at 26 weeks gestation, with no significant medical history and normal BMI (19.8 kg/m^2) presented to their local hospital with severe epigastric pain. […] They were diagnosed with HELLP syndrome; betamethasone was administered for fetal maturation and magnesium sulfate for seizure prophylaxis, and they were transferred to our institution for anticipated delivery and neonatal support.
On arrival the patient was afebrile with normal neurologic status; blood pressure was 161/88 mmHg and labwork confirmed ongoing hemolysis, elevated liver enzymes and low platelets. Since there are several imitators of severe preeclampsia/HELLP syndrome, we performed an extensive work-up for alternative etiologies; also, review of medical history and prenatal records discovered no pre-existing hypertension, renal disease, or clotting disorder.
Routine studies, including serum creatinine, bilirubin, fibrinogen, coagulation studies, and glucose were normal; ANA screen and viral hepatitis panel were negative. Given no evidence for acute fatty liver of pregnancy, thrombotic thrombocytopenic purpura, hemolytic uremic syndrome, or systemic lupus erythematosus, we felt that the clinical presentation was most consistent with severe preeclampsia/HELLP syndrome. Ultrasound estimated fetal weight was 893 g (11th percentile) with normal amniotic fluid and diminished umbilical artery dopplers. Neonatal consult was obtained, after which the patient expressed reticence to be delivered due to newborn risks of marked prematurity and inquired about alternative treatment approaches. We discussed preeclampsia/HELLP syndrome as a systemic inflammatory disorder with the complement cascade a key mediator.
The patient's initial course was complicated by escalating blood pressures and pulmonary edema, which responded to Labetalol and Lasix, respectively. […] By treatment day 6, LDH, haptoglobin, AST, and platelet count normalized, FIG. 5a-b.
as §1
On treatment day 16, a 24 h urine collection measured 4522 mg of protein. Concomitantly, blood pressures rose (140-160/90-100 mmHg) and laboratory parameters began to worsen, FIG. 5a-b. Due to worsening status, delivery was recommended. Cesarean delivery was performed at 29 2/7 wks gestation, resulting in a neonate weighing 1220 g, with Apgars 4 and 8 at 1 and 5 min. The placenta was severely fragmented, weighing 155 g. Post-operatively there was spontaneous diuresis; blood pressure and lab parameters improved. Two units of packed red blood cells were transfused for symptomatic anemia (Hgb 6.9 g/dL). The patient was discharged on post-operative day 4 and remained well postpartum, discontinuing Nifedipine at 6 weeks. Postpartum evaluation for antiphospholipid antibodies was negative.
While not wishing to be bound by any particular theory, we believe in our case that increasing placental mass and feto-placental debris ultimately tipped the balance toward inflammation, overwhelming the initial complement inhibition and resulting in resurgent disease. Future investigations would help correlate the clinical changes seen with levels of investigational biomarkers such as complement proteins, angiogenic markers or inflammatory cytokines Nevertheless, pregnancy was prolonged by 17 days, allowing further fetal growth and maturation and likely resulting in reduced neonatal morbidity with its associated short and long-term health care costs.

For data set [3] the following is noted: literature [15]; cited from earlier work.

For the substance Eculizumab, the “cord blood level lower than the maternal concentration” value in data set [1] (at delivery) is 20 fold. Besides, in data set [1] (breast milk), the “Eculizumab in the breast milk” value was “no detectable”. For the same substance, in data set [1] (cord blood samples taken at delivery), the “cord blood level of Eculizumab” value is 15 µg/mL. For the same substance, the “trough level of Eculizumab, to block complement-dependent hemolysis” value in data set [1] (treatment day 7, maternal) is “sub-therapeutic”. The “24 h urine collection protein” value in data set [2] (after first dose, before re-dosing on treatment day 7) is 383 mg; in data set [2] (treatment day 16, after third dose), 4522 mg. Besides, the blood pressures entry in data set [2] (by 24 h after the second infusion (treatment day 7)) is “improved”. Besides, the “LDH, haptoglobin, AST, and platelet count” value in data set [2] (by treatment day 6, Eculizumab 1200 mg, one patient) is on record as “normalized”. The adverse effects result in data set [2] (human, in vivo) is “without apparent adverse effects”. In addition, the “clinical and laboratory parameters” value in data set [2] (one patient, overall outcome) is on record as “marked improvement”. Further, the “pregnancy prolonged by” value in data set [2] (one patient, three doses of Eculizumab) was found to be 17 days. Moreover, the “safety of use in pregnancy” value in data set [3] was “appears safe to use in pregnancy”.

The values are drawn from patent publication US20150330989A1, “METHOD AND SYSTEM FOR DIAGNOSING AND TREATING PREECLAMPSIA” (THE BRIGHAM AND WOMEN'S HOSPITAL, INC., priority 2012, published 2015).
